# Tests used:
# Sequences of proteins named here, by UniProt entry; tags and fusion partners are left off. Residues count along the entry.
# UniProt P21709, 26-976 limits assumed: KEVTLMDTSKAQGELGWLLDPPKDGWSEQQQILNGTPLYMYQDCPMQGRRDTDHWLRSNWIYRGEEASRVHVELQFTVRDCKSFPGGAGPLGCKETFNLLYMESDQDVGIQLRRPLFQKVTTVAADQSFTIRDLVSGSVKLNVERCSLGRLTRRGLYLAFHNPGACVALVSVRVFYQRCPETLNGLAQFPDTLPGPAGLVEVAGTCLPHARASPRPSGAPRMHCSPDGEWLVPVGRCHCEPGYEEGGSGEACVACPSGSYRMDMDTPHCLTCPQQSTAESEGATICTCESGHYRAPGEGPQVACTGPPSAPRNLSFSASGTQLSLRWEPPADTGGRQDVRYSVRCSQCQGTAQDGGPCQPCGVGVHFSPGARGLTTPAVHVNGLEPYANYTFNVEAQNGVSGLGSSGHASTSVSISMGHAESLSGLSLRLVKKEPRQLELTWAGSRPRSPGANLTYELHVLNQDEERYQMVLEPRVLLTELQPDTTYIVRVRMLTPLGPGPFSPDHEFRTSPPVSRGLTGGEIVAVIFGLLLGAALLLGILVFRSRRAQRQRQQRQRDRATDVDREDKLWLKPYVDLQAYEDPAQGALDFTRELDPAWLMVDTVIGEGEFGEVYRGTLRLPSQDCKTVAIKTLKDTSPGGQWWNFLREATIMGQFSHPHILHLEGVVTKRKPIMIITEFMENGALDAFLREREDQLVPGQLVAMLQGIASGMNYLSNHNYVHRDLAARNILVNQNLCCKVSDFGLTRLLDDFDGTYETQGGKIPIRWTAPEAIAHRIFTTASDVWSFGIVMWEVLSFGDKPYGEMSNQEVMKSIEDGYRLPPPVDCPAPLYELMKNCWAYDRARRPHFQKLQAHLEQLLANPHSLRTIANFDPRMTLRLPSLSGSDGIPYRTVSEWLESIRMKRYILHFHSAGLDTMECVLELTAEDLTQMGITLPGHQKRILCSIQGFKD
# UniProt Q53H12, whole entry: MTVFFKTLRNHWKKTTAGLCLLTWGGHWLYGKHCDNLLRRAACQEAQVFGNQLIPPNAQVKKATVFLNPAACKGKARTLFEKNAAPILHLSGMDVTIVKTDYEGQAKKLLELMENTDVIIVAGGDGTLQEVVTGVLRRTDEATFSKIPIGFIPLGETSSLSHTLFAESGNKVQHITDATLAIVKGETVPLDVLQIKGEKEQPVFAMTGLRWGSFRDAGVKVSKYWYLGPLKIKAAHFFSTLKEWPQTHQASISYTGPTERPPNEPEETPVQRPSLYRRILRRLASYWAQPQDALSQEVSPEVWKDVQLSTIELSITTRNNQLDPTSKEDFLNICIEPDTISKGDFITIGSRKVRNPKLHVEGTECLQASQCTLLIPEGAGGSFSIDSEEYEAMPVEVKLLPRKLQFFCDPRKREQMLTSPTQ
# UniProt P08581, 25-1390 limits assumed: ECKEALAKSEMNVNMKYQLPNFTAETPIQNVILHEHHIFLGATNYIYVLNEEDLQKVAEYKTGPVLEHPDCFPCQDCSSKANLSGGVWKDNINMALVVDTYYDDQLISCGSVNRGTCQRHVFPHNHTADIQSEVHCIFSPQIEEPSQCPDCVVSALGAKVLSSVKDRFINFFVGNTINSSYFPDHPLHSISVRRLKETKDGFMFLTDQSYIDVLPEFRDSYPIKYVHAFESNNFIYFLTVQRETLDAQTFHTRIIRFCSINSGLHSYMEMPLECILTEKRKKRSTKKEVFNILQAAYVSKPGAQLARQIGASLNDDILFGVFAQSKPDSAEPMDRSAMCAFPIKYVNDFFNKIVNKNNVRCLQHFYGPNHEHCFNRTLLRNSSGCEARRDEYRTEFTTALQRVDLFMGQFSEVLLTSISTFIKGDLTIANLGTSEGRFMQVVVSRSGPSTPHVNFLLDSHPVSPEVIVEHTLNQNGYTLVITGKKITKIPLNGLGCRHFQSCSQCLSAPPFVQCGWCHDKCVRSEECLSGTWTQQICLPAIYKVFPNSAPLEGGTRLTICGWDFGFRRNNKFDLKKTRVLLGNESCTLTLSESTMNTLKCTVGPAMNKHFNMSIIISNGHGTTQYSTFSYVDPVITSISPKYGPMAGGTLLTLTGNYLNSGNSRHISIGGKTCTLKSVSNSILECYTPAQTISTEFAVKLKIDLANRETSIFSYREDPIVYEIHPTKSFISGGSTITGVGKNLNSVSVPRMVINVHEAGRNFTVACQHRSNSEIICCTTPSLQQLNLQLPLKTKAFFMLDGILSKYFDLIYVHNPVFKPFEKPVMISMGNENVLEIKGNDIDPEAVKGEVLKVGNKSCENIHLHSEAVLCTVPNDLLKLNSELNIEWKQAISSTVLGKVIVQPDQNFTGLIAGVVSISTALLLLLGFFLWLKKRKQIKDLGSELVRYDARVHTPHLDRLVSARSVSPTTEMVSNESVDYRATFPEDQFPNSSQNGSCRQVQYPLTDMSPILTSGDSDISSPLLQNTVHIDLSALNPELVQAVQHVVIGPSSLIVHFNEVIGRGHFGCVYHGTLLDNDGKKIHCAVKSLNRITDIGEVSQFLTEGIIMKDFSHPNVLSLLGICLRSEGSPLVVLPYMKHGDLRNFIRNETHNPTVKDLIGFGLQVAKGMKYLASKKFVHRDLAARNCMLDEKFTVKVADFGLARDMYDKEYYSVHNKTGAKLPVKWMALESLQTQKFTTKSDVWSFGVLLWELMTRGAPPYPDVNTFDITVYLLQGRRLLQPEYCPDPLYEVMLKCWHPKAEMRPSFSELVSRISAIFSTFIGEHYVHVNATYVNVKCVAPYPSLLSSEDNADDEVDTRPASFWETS
# UniProt Q04771, 21-509 limits assumed: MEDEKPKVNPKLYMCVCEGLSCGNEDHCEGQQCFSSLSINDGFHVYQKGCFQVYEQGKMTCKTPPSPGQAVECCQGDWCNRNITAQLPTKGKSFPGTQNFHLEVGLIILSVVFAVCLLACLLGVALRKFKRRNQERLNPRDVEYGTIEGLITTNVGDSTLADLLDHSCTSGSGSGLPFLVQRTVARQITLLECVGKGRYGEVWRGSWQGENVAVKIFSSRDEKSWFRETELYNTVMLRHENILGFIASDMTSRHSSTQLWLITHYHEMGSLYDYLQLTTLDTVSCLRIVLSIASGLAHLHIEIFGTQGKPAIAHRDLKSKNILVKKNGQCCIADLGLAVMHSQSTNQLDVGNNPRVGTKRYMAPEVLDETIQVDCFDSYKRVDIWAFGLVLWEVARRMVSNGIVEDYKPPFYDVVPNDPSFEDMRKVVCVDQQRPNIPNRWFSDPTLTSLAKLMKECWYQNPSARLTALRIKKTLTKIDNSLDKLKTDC
# UniProt P49336, whole entry: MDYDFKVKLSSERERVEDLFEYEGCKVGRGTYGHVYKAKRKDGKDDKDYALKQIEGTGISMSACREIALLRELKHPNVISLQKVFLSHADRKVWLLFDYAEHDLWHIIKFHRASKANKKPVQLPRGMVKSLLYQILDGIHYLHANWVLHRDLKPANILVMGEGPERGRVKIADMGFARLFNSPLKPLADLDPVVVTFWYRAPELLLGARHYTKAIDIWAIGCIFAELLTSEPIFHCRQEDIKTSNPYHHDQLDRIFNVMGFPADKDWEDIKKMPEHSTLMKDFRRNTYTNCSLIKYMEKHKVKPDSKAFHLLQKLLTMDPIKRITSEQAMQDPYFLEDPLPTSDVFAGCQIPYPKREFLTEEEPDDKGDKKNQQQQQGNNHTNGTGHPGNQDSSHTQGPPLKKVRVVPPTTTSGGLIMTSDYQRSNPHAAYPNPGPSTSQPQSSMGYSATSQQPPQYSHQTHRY
# UniProt P10721, 26-976 limits assumed: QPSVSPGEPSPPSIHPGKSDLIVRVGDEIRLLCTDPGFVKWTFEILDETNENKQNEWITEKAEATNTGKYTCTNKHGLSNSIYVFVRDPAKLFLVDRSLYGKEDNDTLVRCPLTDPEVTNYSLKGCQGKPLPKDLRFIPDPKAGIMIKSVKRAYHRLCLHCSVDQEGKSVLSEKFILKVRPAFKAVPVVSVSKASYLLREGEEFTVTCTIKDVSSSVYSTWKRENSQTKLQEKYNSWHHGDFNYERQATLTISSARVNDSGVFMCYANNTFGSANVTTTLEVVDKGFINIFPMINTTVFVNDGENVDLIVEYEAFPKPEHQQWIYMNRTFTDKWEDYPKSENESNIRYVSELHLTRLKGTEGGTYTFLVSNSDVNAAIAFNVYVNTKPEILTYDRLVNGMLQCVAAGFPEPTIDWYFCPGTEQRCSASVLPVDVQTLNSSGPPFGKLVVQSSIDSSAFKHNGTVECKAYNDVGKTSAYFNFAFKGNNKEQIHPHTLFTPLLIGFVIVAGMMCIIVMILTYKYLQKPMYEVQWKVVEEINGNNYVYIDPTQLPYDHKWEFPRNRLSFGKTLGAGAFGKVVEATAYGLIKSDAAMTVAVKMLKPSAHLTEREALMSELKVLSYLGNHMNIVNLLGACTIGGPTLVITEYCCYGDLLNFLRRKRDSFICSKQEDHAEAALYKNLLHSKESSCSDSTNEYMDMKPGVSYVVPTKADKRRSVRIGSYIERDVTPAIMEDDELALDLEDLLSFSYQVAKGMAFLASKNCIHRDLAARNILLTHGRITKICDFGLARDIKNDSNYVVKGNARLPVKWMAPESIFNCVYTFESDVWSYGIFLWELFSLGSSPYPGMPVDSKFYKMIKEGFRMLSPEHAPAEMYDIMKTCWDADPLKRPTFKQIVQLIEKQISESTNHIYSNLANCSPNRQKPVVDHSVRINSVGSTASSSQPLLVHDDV
# UniProt Q9UEE5, whole entry: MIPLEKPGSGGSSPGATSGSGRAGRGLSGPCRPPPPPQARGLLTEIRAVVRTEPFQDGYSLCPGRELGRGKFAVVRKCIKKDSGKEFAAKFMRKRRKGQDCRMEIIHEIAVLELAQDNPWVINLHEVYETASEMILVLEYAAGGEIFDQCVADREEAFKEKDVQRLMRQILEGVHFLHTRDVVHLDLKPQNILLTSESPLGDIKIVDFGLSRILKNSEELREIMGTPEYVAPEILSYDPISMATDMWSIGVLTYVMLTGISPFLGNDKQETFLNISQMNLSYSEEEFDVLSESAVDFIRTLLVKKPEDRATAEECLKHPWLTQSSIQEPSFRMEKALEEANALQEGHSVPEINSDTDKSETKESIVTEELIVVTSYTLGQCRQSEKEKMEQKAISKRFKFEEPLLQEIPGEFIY
# UniProt Q8TF76, whole entry: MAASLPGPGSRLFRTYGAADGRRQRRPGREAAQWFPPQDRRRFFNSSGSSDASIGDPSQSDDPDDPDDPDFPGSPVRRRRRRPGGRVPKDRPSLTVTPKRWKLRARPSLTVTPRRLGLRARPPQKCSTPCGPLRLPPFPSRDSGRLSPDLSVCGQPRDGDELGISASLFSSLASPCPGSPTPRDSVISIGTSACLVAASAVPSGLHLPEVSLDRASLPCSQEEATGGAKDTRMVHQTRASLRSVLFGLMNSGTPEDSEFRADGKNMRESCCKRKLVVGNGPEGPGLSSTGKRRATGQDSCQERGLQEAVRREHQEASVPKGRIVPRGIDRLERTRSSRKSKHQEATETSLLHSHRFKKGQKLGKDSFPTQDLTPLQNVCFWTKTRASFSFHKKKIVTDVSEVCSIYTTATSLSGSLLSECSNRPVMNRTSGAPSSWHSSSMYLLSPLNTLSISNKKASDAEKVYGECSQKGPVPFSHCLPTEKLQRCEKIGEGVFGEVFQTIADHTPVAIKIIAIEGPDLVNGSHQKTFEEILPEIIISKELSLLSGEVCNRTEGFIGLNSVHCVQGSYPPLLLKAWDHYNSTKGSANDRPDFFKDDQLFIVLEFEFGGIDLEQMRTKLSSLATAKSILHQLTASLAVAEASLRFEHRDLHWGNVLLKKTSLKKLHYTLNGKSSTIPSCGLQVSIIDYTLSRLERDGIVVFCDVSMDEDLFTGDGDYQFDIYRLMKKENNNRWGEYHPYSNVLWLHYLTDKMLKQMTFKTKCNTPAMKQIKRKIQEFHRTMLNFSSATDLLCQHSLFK
# UniProt P25774, 115-331 limits assumed: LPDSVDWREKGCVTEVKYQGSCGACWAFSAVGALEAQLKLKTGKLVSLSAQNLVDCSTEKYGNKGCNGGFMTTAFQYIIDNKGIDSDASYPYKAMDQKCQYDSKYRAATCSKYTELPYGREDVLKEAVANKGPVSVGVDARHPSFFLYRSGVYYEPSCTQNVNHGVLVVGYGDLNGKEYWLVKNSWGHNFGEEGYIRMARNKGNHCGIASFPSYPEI
# UniProt O14965, whole entry: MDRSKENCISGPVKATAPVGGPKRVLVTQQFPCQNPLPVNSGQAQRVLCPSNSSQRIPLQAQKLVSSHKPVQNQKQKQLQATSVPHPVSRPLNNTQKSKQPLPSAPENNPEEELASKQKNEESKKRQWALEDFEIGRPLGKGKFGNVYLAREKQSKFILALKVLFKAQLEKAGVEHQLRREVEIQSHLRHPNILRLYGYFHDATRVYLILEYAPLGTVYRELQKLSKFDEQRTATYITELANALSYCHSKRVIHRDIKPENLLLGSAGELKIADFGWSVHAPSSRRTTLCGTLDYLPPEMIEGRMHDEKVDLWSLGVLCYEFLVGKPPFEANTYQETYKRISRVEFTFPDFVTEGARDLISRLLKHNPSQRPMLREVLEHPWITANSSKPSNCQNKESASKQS
# PRKAB1 = test: KAT chemical proteomics
# EPHA1 = EPHA1 (Homo sapiens, UniProt P21709); test: KAT chemical proteomics
# CSK = CSK (Homo sapiens, UniProt P41240); test: KAT chemical proteomics
# DYRK1B = DYRK1B (Homo sapiens, UniProt Q9Y463); test: KAT chemical proteomics
# CSNK2B = test: KAT chemical proteomics
# AKT3 = AKT3 (Homo sapiens, UniProt Q9Y243); test: KAT chemical proteomics
# CAMK1D = CAMK1D (Homo sapiens, UniProt Q8IU85); test: KAT chemical proteomics
# AGK = AGK (Homo sapiens, UniProt Q53H12); test: KAT chemical proteomics
# PRKCD = PRKCD (Homo sapiens, UniProt Q05655); test: KAT chemical proteomics
# CKB = CKB (Homo sapiens, UniProt P12277); test: KAT chemical proteomics
# TAOK2 = TAOK2 (Homo sapiens, UniProt Q9UL54); test: KAT chemical proteomics
# CLK3 = CLK3 (Homo sapiens, UniProt P49761); test: KAT chemical proteomics
# MYLK = MYLK (Homo sapiens, UniProt Q15746); test: KAT chemical proteomics
# CDC42BPB = CDC42BPB (Homo sapiens, UniProt Q9Y5S2); test: KAT chemical proteomics
# MET = MET (Homo sapiens, UniProt P08581); test: KAT chemical proteomics
# CHUK = CHUK (Homo sapiens, UniProt O15111); test: KAT chemical proteomics
# PKN2 = PKN2 (Homo sapiens, UniProt Q16513); test: KAT chemical proteomics
# ACVR1 = ACVR1 (Homo sapiens, UniProt Q04771); test: KAT chemical proteomics
# AAK1 = AAK1 (Homo sapiens, UniProt Q2M2I8); test: KAT chemical proteomics
# CDK8 = CDK8 (Homo sapiens, UniProt P49336); test: KAT chemical proteomics
# PRKCQ = PRKCQ (Homo sapiens, UniProt Q04759); test: KAT chemical proteomics
# CDK5 = CDK5 (Homo sapiens, UniProt Q00535); test: KAT chemical proteomics
# FLT3 = FLT3 (Homo sapiens, UniProt P36888); test: KAT chemical proteomics
# KIT = KIT (Homo sapiens, UniProt P10721); test: KAT chemical proteomics
# STK17A = STK17A (Homo sapiens, UniProt Q9UEE5); test: KAT chemical proteomics
# CHEK1 = CHEK1 (Homo sapiens, UniProt O14757); test: KAT chemical proteomics
# PRKACA = PRKACA (Homo sapiens, UniProt P17612); test: KAT chemical proteomics
# CDK10 = CDK10 (Homo sapiens, UniProt Q15131); test: KAT chemical proteomics
# GSG2 = GSG2 (Homo sapiens, UniProt Q8TF76); test: KAT chemical proteomics
# Na+/K+ ATPase = test: Secondary pharmacology, enzyme
# Cathepsin S = Cathepsin S (Homo sapiens, UniProt P25774); test: Secondary pharmacology, enzyme
# c-kit kinase = c-kit kinase (Homo sapiens, UniProt P10721); test: Secondary pharmacology, enzyme
# [1] = target: Epidermal growth factor receptor kinase (EGFR kinase) (Homo sapiens, UniProt P00533); test: Secondary pharmacology, enzyme
# Acetylcholinesterase = Acetylcholinesterase (Homo sapiens, UniProt P22303); test: Secondary pharmacology, enzyme
# [2] = target: Glycogen synthase kinase-3 β (Homo sapiens, UniProt P49841); test: Secondary pharmacology, enzyme
# Aurora A kinase = Aurora A kinase (Homo sapiens, UniProt O14965); test: Secondary pharmacology, enzyme
# Phosphodiesterase PDE3 = test: Secondary pharmacology, enzyme
# [3] = target: Rho Associated, Coiled Coil Containing Protein Kinase 1 (ROCK1) (Homo sapiens, UniProt Q13464); test: Secondary pharmacology, enzyme
compound,measurement,setting,value
"Cc1nc(C(F)(F)F)c2c(C(N)=O)c(N)n(-c3c(C)ccc(O)c3C)c2n1 (single isomer, unassigned)",RB50,PRKAB1,>50 µM
same,RB50,EPHA1,2.4 nM
same,RB50,CSK,>50 µM
same,RB50,DYRK1B,308 nM
same,RB50,CSNK2B,>50 µM
same,RB50,AKT3,>50 µM
same,RB50,CAMK1D,>50 µM
same,RB50,AGK,>50 µM
same,RB50,PRKCD,>50 µM
same,RB50,CKB,>50 µM
same,RB50,TAOK2,>50 µM
same,RB50,CLK3,>50 µM
same,RB50,MYLK,>50 µM
same,RB50,CDC42BPB,>50 µM
same,RB50,MET,>50 µM
same,RB50,CHUK,>50 µM
same,RB50,PKN2,>50 µM
same,RB50,ACVR1,55.5 nM
same,RB50,AAK1,>50 µM
same,RB50,CDK8,>50 µM
same,RB50,PRKCQ,>50 µM
same,RB50,CDK5,>50 µM
same,RB50,FLT3,>50 µM
same,RB50,KIT,>50 µM
same,RB50,STK17A,>50 µM
same,RB50,CHEK1,>50 µM
same,RB50,PRKACA,>50 µM
same,RB50,CDK10,>50 µM
same,RB50,GSG2,>50 µM
same,Pharmacological mode of action,Na+/K+ ATPase,Inactive
same,IC50,Na+/K+ ATPase; read-out: Enzyme IC50,> 100 µM
same,Pharmacological mode of action,Cathepsin S,Inactive
same,IC50,Cathepsin S; read-out: Enzyme IC50,> 10 µM
same,Pharmacological mode of action,c-kit kinase,Inhibitor
same,IC50,c-kit kinase; read-out: Enzyme IC50,32 µM
same,Pharmacological mode of action,[1],Inactive
same,IC50,[1]; read-out: Enzyme IC50,> 100 µM
same,Pharmacological mode of action,Acetylcholinesterase,Inactive
same,IC50,Acetylcholinesterase; read-out: Enzyme IC50,> 100 µM
same,Pharmacological mode of action,[2],Inhibitor
same,IC50,[2]; read-out: Enzyme IC50,1.1 µM
same,Pharmacological mode of action,Aurora A kinase,Inactive
same,IC50,Aurora A kinase; read-out: Enzyme IC50,> 100 µM
same,Pharmacological mode of action,Phosphodiesterase PDE3,Inactive
same,IC50,Phosphodiesterase PDE3; read-out: Enzyme IC50,> 100 µM
same,Pharmacological mode of action,[3],Inactive
same,IC50,[3]; read-out: Enzyme IC50,> 100 µM

# Reference: US20260384438A1, “PYRROLOPYRIMIDINE CARBOXAMIDES” (published 2026)
